Experimental findings from ChEMBL document CHEMBL3352462, “Aldosterone synthase inhibitors as promising treatments for mineralocorticoid dependent cardiovascular and renal diseases” (J Med Chem, 2014) are described below.

Test [1] deals with T1, Cytochrome P450 11B1, mitochondrial (Homo sapiens, UniProt P15538).
T1 sequence (P15538 whole entry): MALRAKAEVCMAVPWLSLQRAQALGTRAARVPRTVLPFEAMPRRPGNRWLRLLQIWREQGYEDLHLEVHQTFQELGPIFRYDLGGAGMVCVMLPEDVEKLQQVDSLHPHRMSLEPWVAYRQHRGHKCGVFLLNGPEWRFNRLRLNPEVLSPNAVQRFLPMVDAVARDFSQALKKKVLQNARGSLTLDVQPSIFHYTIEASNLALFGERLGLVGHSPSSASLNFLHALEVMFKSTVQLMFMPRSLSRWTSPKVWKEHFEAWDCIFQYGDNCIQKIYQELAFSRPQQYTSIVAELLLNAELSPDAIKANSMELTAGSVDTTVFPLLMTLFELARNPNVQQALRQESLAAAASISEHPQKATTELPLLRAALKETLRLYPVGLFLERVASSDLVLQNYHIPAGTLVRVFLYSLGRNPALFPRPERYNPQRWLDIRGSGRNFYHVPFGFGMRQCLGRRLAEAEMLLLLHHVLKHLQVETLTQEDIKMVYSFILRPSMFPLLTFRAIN
Briefly: Inhibition of human CYP11B1 expressed in V79 MZ cells pretreated with compound for 1 hr followed by addition of 500 nM 11-deoxycorticosterone for 3 hrs by HPLC analysis. The format is cell-based, V79MZ.

For test [2], the target named is T2, Cytochrome P450 11B2, mitochondrial (Homo sapiens, UniProt P19099).
T2 sequence (P19099 whole entry): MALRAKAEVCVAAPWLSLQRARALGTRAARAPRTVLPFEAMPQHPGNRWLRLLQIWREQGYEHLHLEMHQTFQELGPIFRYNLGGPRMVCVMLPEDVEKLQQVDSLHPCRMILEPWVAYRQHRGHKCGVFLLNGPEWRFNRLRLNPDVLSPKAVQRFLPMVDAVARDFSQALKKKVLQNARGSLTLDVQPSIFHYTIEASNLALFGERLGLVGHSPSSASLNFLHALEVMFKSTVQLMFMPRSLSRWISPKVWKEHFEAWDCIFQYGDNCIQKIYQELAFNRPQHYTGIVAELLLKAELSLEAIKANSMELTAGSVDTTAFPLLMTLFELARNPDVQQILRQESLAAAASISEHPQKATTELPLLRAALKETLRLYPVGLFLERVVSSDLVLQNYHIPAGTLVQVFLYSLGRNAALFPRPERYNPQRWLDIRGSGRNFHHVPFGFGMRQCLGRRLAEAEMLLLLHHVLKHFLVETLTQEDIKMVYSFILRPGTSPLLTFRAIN
Briefly: Inhibition of human aldosterone synthase expressed in V79 MZ cells pretreated with compound for 1 hr followed by addition of 500 nM 11-deoxycorticosterone for 1hr by HPLC analysis. The format is cell-based, V79MZ.

In general, IC50 refers to the midpoint of a concentration-inhibition curve. `CC(C)(C(=O)c1cccnc1)c1cccnc1` [METYRAPONE]: the values for the IC50 in test [1] and in test [2] were 46 nM and 208 nM, respectively.
